Measured values published in patent EP3494999A1, “PSMA LIGANDS FOR IMAGING AND ENDORADIOTHERAPY” (Technische Universität München, priority 2017, dated 2019).

Protein sequences, listed by entry. Tags and fused reporters are not part of them. Residues count along the entry.
UniProt P02768, 25-609: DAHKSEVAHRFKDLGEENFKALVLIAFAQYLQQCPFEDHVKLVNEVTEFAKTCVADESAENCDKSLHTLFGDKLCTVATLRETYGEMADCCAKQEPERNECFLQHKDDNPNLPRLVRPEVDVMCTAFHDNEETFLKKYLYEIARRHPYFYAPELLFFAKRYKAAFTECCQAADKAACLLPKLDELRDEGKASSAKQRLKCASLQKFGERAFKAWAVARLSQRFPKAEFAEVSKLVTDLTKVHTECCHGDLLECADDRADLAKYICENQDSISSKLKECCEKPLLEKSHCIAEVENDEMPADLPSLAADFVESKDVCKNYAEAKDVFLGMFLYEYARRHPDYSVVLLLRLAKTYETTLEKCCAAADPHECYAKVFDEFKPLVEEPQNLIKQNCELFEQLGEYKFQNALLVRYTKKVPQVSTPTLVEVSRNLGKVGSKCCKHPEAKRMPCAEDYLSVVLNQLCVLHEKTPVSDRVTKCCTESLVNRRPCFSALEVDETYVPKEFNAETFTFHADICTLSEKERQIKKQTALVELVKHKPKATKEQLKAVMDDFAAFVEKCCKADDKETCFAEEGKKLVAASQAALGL

Key:
human serum albumin [1] = target: T1, human serum albumin (Homo sapiens, UniProt P02768); conditions: literature value of human serum albumin binding (Valko et al. or Yamazaki et al.); cited from earlier work
human serum albumin [2] = target: T1, human serum albumin; assay: Literature HSA binding of the reference substances used to calibrate the HSA column; conditions: logarithmic K of human serum albumin binding, from the literature HSA%

Log K HSA (human serum albumin [2]): 0.46
Structure (SMILES): NC(=O)N1c2ccccc2C=Cc2ccccc21 [Carbamazepine]
Lit. HSA% (human serum albumin [1]): 75.00%
